Values quoted from earlier work, collected in paper PMC11736853.

How the values were obtained:
[1] = biological target: FYCO1 peptide 49 (Homo sapiens) (UniProt Q9BQS8); assay: FP
[2] = biological target: FYCO1 peptide 51 (Homo sapiens) (UniProt Q9BQS8); assay: FP

Kd [1]: 290 nM
Kd [2]: 200 nM
Substance: LC3B (from UniProt Q9GZQ8)
